ASAP1 inh: inhibitors of human ASAP1 ArfGAP activity, primary screen, biochemical, fluorescence polarization; Arf-GAP with SH3 domain, ANK repeat and PH domain-containing protein 1 (Homo sapiens), …; ASAP1-stimulated ARF1 GTP hydrolysis, GDP FP detection; inhibition, % at 16.5 µM; hit rate 0.19% among 360,000; AID 624377, 2012; in the data active = inhibition above about 25%;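 also: 0% = vehicle with enzyme and substrate and 100% = no enzyme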
MC4R antag cAMP: MC4R antagonists of cAMP signaling, primary screen, cell-based, TR-FRET, antagonist arm of biased-ligand search; Melanocortin receptor 4 (Homo sapiens), P32245; MC4R-expressing cells, MTII-stimulated cAMP, LANCE TR-FRET; inhibition, % at 6.5 µM; hit rate 0.48% among 360,000; AID 540295, 2011;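 active = inhibition above its plate's cutoff, the mean of tested wells on that plate plus 3 SD, cut at about 29% in these data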;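 also: 0% = Melanotan II alone and 100% = Melanotan II plus saturating MCL0020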
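Assay system: U2OS-MC4R stable cell line; Also added: Melanotan II; Technique: Eu-cAMP/anti-cAMP TR-FRET, emission 671 nm; Times: 30-min compound, 1-h challenge, 1-h detection, room temperature.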
ARFGAP1 inh: inhibitors of rat ARFGAP1 GAP activity, primary screen, biochemical, fluorescence polarization, GDP tracer; ADP-ribosylation factor GTPase-activating protein 1 (Rattus norvegicus), Q62848; Arfgap1-stimulated ARF1 GTP hydrolysis, GDP FP detection; inhibition, % at 16.5 µM; hit rate 0.26% among 360,000;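 active = inhibition above a per-plate limit, mean inhibition of low control wells plus 3 SD, cut at about 25% in these data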;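 also: 0% = DMSO wells with enzyme and 100% = wells lacking Arfgap1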
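Assay system: Rat Arfgap1 GAP domain (His6, aa 1-136), purified enzyme | Buffer or medium: HEPES 25 mM pH 7.5, NaCl 150 mM, MgCl2, DTT | Schedule: GTP hydrolysis reaction 2 h at 25 °C | Signal: FP of antibody-bound GDP Alexa 633 tracer, ex 620/em 688 nm | Measure: Percent inhibition of Arfgap1-stimulated GTP hydrolysis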
NRP1-CendR mod: modulators of CendR peptide binding to NRP-1, primary screen, biochemical, fluorescence polarization, uHTS; Neuropilin-1 (Homo sapiens), O14786; FAM-RPARPAR peptide binding to NRP-1; inhibition, % at 25 µM; hit rate 0.85% among 360,000; AID 602438, 2012;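 active = inhibition or corrected inhibition above about 18%, plus a signal ratio from 0.5 to 1.5, limit read from the data, passing the limit was not always enough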
Yeast UUG start: yeast start codon fidelity modulation; actives 0.13% (n = 350,000); activity score, % at 18.7 µM; S. cerevisiae UUG-firefly luciferase reporter, luminescence/redox ratio;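 active = replicate mean at a twofold rise or more, about +100% in these data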;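 note: firefly luciferase made from a UUG start codon reports start codon fidelity; reporter light over untreated wells divided by growth signal over untreated wells; some hits fall short of that in this replicate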
MC4R barr agon: MC4R agonists recruiting beta-arrestin, primary screen, cell-based, luminescence, agonist arm of biased-ligand search; Melanocortin receptor 4 (Homo sapiens), P32245; U2OS MC4R beta-arrestin complementation; percent of melanotan II response, DMSO zero; activation, % at 8.9 µM; hit rate 0.98% among 360,000; AID 540308, 2011;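 active = activation above a per-plate cutoff, the mean activation of sample wells on that plate plus 3 SD, cut at about 8% in these data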
MC4R barr ag: MC4R beta-arrestin agonists, retest, confirmation, cell-based, luminescence, U2OS | activation, % at 8.9 µM | U2OS MC4R beta-arrestin recruitment; scaled DMSO 0%, Melanotan II 100% | shares compounds with MC4R barr agon | AID 602192, 2012 | hit rate 31% among 2,400;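 active = mean activation across replicates above the hit cutoff set in the earlier primary screen, cut at about 8% in these data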
MOR DOR agonist: agonists of MOR-DOR heterodimerization, counter-screen for MC4R biased agonist project, cell-based, luminescence. hit rate 5.8% among 2,400. U2OS PathHunter beta-arrestin, beta-gal luminescence; percent of deltorphin B response, DMSO zero. activation, % at 9.2 µM. shares compounds with MC4R barr agon;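 active = mean activation across replicates exceeds the hit threshold derived in the earlier primary screen, cut at about 18% in these data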;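 also: 100% = deltorphin B at 0.9 µM final and 0% = DMSO alone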
Numbers without * were called inactive. An excerpt weighted towards active compounds, which were near 2.3% of everything screened.

By UniProt entry, the sequences of proteins in these tests, tags left out. Residues count along the entry.
Melanocortin receptor 4 (Homo sapiens), P32245, UniProt P32245, whole entry, looked up: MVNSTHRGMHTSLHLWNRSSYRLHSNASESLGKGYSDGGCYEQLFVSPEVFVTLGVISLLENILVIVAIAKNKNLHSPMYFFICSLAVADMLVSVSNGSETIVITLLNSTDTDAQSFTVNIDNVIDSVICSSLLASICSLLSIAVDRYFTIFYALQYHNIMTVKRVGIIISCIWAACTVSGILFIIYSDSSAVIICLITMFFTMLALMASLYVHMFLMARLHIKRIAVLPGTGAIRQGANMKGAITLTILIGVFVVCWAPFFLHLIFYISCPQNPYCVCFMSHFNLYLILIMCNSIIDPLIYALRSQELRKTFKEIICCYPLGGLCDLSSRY
ADP-ribosylation factor GTPase-activating protein 1 (Rattus norvegicus), Q62848, UniProt Q62848, whole entry, looked up: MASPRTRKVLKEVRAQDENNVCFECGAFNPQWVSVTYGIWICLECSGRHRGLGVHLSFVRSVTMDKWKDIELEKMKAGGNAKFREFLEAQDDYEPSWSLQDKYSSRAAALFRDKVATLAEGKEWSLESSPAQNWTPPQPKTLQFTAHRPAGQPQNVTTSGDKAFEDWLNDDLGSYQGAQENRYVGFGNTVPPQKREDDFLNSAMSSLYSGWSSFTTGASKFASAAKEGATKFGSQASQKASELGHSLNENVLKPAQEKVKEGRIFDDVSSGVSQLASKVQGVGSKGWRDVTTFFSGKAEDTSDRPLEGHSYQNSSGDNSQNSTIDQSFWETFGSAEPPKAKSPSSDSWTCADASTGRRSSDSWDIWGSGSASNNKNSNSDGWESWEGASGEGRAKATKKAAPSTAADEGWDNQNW
ADP-ribosylation factor GTPase-activating protein 1 (Rattus norvegicus), Q62848, UniProt Q62848, 1-136 limits assumed: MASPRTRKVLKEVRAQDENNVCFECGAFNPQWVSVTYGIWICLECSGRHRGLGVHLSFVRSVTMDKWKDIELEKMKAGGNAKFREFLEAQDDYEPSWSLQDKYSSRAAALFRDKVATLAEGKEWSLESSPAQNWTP
Neuropilin-1 (Homo sapiens), O14786, UniProt O14786, whole entry, looked up: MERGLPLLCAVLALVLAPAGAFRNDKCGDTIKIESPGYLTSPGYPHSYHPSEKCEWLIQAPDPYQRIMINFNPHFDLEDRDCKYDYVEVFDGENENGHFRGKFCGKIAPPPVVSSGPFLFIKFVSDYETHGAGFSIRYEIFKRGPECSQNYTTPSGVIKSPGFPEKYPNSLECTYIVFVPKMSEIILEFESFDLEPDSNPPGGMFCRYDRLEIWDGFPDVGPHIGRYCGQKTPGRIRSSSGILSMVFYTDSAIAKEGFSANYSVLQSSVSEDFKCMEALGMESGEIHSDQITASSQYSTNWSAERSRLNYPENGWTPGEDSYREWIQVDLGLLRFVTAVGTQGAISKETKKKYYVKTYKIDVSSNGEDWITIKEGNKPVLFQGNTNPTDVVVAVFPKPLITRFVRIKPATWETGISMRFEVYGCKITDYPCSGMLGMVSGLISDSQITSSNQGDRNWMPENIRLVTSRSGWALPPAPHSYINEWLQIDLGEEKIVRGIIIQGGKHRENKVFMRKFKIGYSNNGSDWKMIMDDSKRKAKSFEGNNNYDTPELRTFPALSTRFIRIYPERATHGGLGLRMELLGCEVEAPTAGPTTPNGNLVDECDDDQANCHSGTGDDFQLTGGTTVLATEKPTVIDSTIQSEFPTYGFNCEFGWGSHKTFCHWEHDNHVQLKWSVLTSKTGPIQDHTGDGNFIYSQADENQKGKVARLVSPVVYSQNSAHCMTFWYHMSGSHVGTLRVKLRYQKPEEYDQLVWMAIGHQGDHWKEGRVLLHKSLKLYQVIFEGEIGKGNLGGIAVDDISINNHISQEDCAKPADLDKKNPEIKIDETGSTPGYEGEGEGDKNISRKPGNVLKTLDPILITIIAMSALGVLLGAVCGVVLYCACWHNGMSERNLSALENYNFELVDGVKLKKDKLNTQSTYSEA

`O=C(N/N=C/c1ccc(OCc2ccccc2)cc1)c1cccs1` gave ASAP1 inh 10, MC4R antag cAMP 1, ARFGAP1 inh 9, NRP1-CendR mod -9, Yeast UUG start -18, MC4R barr agon 13*, MC4R barr ag 20* and MOR DOR agonist 8.
O=C(Nc1ccc(OCc2ccccc2)cc1)c1cccs1 was read as ASAP1 inh 6, MC4R antag cAMP 1, ARFGAP1 inh -7, NRP1-CendR mod 6, Yeast UUG start -12 and MC4R barr agon 2.
For COc1ccc(S(=O)(=O)N(C)C[C@H]2OCCCC[C@@H](C)Oc3ccc(N(C)C)cc3C(=O)N([C@H](C)CO)C[C@H]2C)cc1 the results were Yeast UUG start 68.
Cc1ccc(-c2cnc3c(c2)C(=O)N([C@H](C)CO)C[C@H](C)[C@@H](CN(C)C(=O)Cc2ccccc2)O3)cc1 was read as Yeast UUG start 19.
For COc1cccc(-c2nc(NCc3ccccc3)c3ccccc3n2)c1O the results were ASAP1 inh 8, MC4R antag cAMP 0, ARFGAP1 inh -2, NRP1-CendR mod 14, Yeast UUG start 2, MC4R barr agon 18*, MC4R barr ag 3 and MOR DOR agonist 5.
Screening COc1ccc(Nc2nc(-c3ccccc3O)nc3ccccc23)cc1 returned ASAP1 inh 11, MC4R antag cAMP 4, ARFGAP1 inh 16, NRP1-CendR mod 0, Yeast UUG start -14 and MC4R barr agon 4.
CCN(CC)c1nc(-c2cccc(OC)c2O)nc2ccccc12 was read as ASAP1 inh -1, MC4R antag cAMP 10, ARFGAP1 inh 8, NRP1-CendR mod 7, Yeast UUG start -12 and MC4R barr agon -1.
Screening COc1ccc(Nc2nc(-c3ccncc3)nc3ccccc23)cc1 returned ASAP1 inh -4, MC4R antag cAMP 19, ARFGAP1 inh -7, NRP1-CendR mod 7, Yeast UUG start -6, MC4R barr agon 19*, MC4R barr ag 2 and MOR DOR agonist 9.
For CCCOC(=O)c1cccc(Nc2nc(-c3cccnc3)nc3ccccc23)c1 the results were ASAP1 inh 5, MC4R antag cAMP 21, ARFGAP1 inh -5, NRP1-CendR mod -8, MC4R barr agon 26*, MC4R barr ag 17* and MOR DOR agonist 11.
`Fc1cccc(Nc2nc(-c3ccncc3)nc3ccccc23)c1` gave ASAP1 inh 7, MC4R antag cAMP 27, ARFGAP1 inh 10, NRP1-CendR mod -6, Yeast UUG start -28, MC4R barr agon 12*, MC4R barr ag 1 and MOR DOR agonist 6.
For C[C@@H]1CN([C@@H](C)CO)C(=O)Cc2cc(NC(=O)Cc3cn(C)c4ccccc34)ccc2O[C@@H]1CN(C)Cc1ccncc1 the results were Yeast UUG start 2.
For C[C@H](CO)N1C[C@H](C)[C@@H](CN(C)C(=O)NC2CCCCC2)Oc2ccc(NC(=O)CCN3CCOCC3)cc2CC1=O the results were Yeast UUG start 8.
`CCC(=O)Nc1ccc2c(c1)C(=O)N(C)[C@H]1CC[C@@H](CC(=O)NCCc3ccccc3)O[C@@H]1CO2` gave Yeast UUG start 4.
O=C(NCc1ccc(F)cc1)[C@H]1[C@H](CO)[C@H]2Cn3c(cccc3=O)[C@@H]1N2Cc1cccnc1 was read as Yeast UUG start -13.
Screening COc1cccc(Nc2nc(-c3ccccc3O)nc3ccccc23)c1 returned ASAP1 inh 0, MC4R antag cAMP 9, ARFGAP1 inh 12, NRP1-CendR mod 2, Yeast UUG start -13, MC4R barr agon 17*, MC4R barr ag 1 and MOR DOR agonist 4.
For Cn1nc(-c2ccccc2)cc1NC(=O)Nc1ccc(C(C)(C)C)cc1 the results were ASAP1 inh 3, MC4R antag cAMP 7, ARFGAP1 inh 9, NRP1-CendR mod -4, MC4R barr agon 12*, MC4R barr ag 1 and MOR DOR agonist 5.
Screening Cn1nc(-c2ccc(Cl)cc2)cc1NC(=O)Nc1ccccc1 returned ASAP1 inh 7, MC4R antag cAMP 4, ARFGAP1 inh 7, NRP1-CendR mod 5, Yeast UUG start -5 and MC4R barr agon -1.
O=C(CSc1nccc(-c2ccc(Br)cc2)n1)NCCc1ccccc1 was read as ASAP1 inh -12, MC4R antag cAMP 6, ARFGAP1 inh 11, NRP1-CendR mod 28*, Yeast UUG start 0, MC4R barr agon 12*, MC4R barr ag 1 and MOR DOR agonist 4.
`Cc1nc(SCC(=O)NCCc2ccccc2)n[nH]1` gave ASAP1 inh -10, MC4R antag cAMP 11, ARFGAP1 inh 3, NRP1-CendR mod 7, Yeast UUG start -29 and MC4R barr agon -1.
Screening S=c1[nH]nc(C2CC2c2ccc(Cl)cc2)n1-c1ccc(Cl)cc1 (stereo unspecified) returned ASAP1 inh -7, MC4R antag cAMP 1, ARFGAP1 inh -10, NRP1-CendR mod 8, MC4R barr agon 11*, MC4R barr ag 4 and MOR DOR agonist 7.
Screening C[C@@H]1CN([C@@H](C)CO)C(=O)c2cc(C#CC3CC3)cnc2O[C@@H]1CN(C)C(=O)Nc1ccc(F)cc1 returned Yeast UUG start 23.
`C[C@@H]1CN([C@@H](C)CO)C(=O)Cc2cc(NC(=O)Nc3ccc(F)cc3)ccc2O[C@H]1CN(C)S(=O)(=O)c1ccc(F)cc1` gave Yeast UUG start 9.
`COc1ccccc1NCC(=O)N/N=C/C=C/c1ccccc1` gave ASAP1 inh 7, MC4R antag cAMP -15, ARFGAP1 inh 10, NRP1-CendR mod -5 and MC4R barr agon -1.
For C/C(=N\NC(=O)COc1ccccc1)c1cccs1 the results were ASAP1 inh -9, MC4R antag cAMP 4, ARFGAP1 inh -3, NRP1-CendR mod -4 and MC4R barr agon 1.

3 consecutive compounds from above, for reference:
`C[C@@H]1CN([C@@H](C)CO)C(=O)Cc2cc(NC(=O)Nc3ccc(F)cc3)ccc2O[C@H]1CN(C)S(=O)(=O)c1ccc(F)cc1` gave Yeast UUG start 9.
`COc1ccccc1NCC(=O)N/N=C/C=C/c1ccccc1` gave ASAP1 inh 7, MC4R antag cAMP -15, ARFGAP1 inh 10, NRP1-CendR mod -5 and MC4R barr agon -1.
For C/C(=N\NC(=O)COc1ccccc1)c1cccs1 the results were ASAP1 inh -9, MC4R antag cAMP 4, ARFGAP1 inh -3, NRP1-CendR mod -4 and MC4R barr agon 1.

High-throughput results as filed in PubChem BioAssay.
